Source: PubChem BioAssay AID489030 (Sanford-Burnham Center for Chemical Genomics, 2010)
The entries are a selection whose mix differs from that of the whole data set. Some structures show a salt or complex split into parts, the way the source records it. Active and inactive are the calls of the source. Rule for the calls: active = inhibition of at least 40% at 20 µM; inactive = the rest.

By UniProt entry, the sequences of proteins in these tests, tags left out.
UniProt O14727, whole entry: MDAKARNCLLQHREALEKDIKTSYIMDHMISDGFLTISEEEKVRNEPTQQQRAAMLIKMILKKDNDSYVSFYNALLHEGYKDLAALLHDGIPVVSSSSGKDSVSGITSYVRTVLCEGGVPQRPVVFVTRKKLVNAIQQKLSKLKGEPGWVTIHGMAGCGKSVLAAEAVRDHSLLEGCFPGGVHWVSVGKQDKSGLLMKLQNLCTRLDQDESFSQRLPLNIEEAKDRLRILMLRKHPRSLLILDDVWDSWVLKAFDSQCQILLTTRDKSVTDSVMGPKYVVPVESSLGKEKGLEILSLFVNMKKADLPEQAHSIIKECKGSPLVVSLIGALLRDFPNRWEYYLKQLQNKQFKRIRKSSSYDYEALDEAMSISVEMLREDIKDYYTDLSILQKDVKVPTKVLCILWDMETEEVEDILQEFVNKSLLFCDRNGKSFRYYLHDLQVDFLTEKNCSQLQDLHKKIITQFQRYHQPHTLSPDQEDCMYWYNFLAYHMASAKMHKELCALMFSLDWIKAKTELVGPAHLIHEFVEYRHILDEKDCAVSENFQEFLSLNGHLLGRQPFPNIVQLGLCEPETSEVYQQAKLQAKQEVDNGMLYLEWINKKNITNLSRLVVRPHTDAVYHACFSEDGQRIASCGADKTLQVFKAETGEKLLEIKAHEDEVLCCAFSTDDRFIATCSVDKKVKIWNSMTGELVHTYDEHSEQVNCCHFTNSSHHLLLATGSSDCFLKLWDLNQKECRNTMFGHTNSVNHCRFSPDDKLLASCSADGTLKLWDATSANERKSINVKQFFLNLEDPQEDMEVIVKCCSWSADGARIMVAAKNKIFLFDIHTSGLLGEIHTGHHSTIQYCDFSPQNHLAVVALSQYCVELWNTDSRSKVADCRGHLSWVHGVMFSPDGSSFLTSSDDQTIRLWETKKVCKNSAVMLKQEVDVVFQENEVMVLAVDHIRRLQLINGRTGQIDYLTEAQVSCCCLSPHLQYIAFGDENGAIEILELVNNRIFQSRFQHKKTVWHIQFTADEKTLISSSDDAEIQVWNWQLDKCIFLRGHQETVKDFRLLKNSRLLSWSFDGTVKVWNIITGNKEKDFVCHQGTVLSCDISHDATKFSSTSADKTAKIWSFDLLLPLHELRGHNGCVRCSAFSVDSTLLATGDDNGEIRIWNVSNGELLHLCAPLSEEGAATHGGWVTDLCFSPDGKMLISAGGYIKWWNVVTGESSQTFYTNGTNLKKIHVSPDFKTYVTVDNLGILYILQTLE

The compounds below were run against Apoptotic protease-activating factor 1 (Homo sapiens) (UniProt O14727) (assay: inhibitors of human Apaf-1 apoptosome, primary screen, biochemical, DEVD-Rh110 fluorescence, uHTS (AID 489030;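 note: plate controls were DMSO wells for no effect and DEVD-CHO caspase inhibitor wells for full effect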)). Conditions: reconstituted apoptosome caspase-3 activity, at 20 µM, hits give high values.

Compound | inhibition
Cc1nc2ccc3ccccc3c2o1.O=[N+]([O-])c1cc([N+](=O)[O-])c(O)c([N+](=O)[O-])c1 | inactive: 12.8%
CP(=O)(Nc1ccc(Cl)cc1Cl)Oc1ccccc1 (stereo not drawn) | inactive: -16.1%
CP(=O)(OCCOc1ccccc1)OCCOc1ccccc1 | inactive: 11.1%
Cc1cc(C)cc(OP(C)(=O)Nc2cccc(C(F)(F)F)c2)c1 (stereo not drawn) | inactive: 21.7%
COc1ccc(OP(C)(=O)Nc2ccccc2Br)cc1 (stereo not drawn) | inactive: -1.2%
COc1ccccc1OP(C)(=O)Nc1ccc(C)c(C)c1 (stereo not drawn) | inactive: -0.181%
Nc1ccc2c(ccc3cccnc32)n1.O=[N+]([O-])c1cc([N+](=O)[O-])c(O)c([N+](=O)[O-])c1 | inactive: -9.37%
CP(=O)(OC12CC3CC(CC(C3)C1)C2)OC12CC3CC(CC(C3)C1)C2 | inactive: 19.5%
CCOC(=O)c1ccc(NP(C)(=O)Oc2ccc(Cl)cc2)cc1 (stereo not drawn) | inactive: 7%
CP(=O)(Nc1ccc(Cl)cc1)Oc1ccc(F)cc1 (stereo not drawn) | inactive: -0.947%
COc1ccccc1OP(C)(=O)Nc1ccccc1Br (stereo not drawn) | inactive: -4.9%
CC(C)(C)c1ccc(OP(C)(=O)O)cc1 | inactive: 5.7%
CN(C)C(=O)c1c([N+](=O)[O-])cc([N+](=O)[O-])cc1[N+](=O)[O-] | inactive: 0.381%
COc1ccc(OP(C)(=O)Nc2ccc(Br)cc2)cc1 (stereo not drawn) | inactive: 1.53%
CCN(CC)CC(O)COC(=O)C(O)(c1ccccc1)C1CCCCC1 (stereo not drawn) | inactive: 5.51%
CCc1ccc(OP(C)(=O)Nc2cccnc2)cc1 (stereo not drawn) | inactive: -4.74%
CP(=O)(Oc1ccccc1)N1CCOC1=O (stereo not drawn) | inactive: -1.68%
O=C(OCCCN1CCCC1)C(O)(c1ccccc1)C1CCCCC1 (stereo not drawn) | inactive: -11.1%
COc1ccccc1OP(C)(=O)Nc1c(C)n(C)n(-c2ccccc2)c1=O (stereo not drawn) | inactive: -6.49%

Compound | inhibition
CP(=O)(Nc1ccc2c(c1)OCCO2)Oc1ccccc1 (stereo not drawn) | inactive: -17.1%
Cc1ccccc1NP(C)(=O)Nc1ccccc1C | inactive: 10.5%
CP(=O)(Nc1ccc(SC(F)(F)F)cc1)Oc1ccc(F)cc1 (stereo not drawn) | inactive: 5.59%
CCOP(C)(=S)SCC(=O)NC(C)(CC)C(=O)O (stereo not drawn) | inactive: 3.76%
O=[N+]([O-])c1cc([N+](=O)[O-])c(NCC2CCS(=O)(=O)C2)c([N+](=O)[O-])c1 (stereo not drawn) | inactive: -0.736%
COc1ccc(OP(C)(=O)Nc2cccc(Br)c2)cc1 (stereo not drawn) | inactive: 6.77%
COc1ccc(NP(C)(=O)Oc2ccccc2OC)cc1 (stereo not drawn) | inactive: -5.09%
CN(C)CCOC(=O)C(O)(c1ccccc1)C1CCCCC1 (stereo not drawn) | inactive: 8.28%
CCN(CC)CCCOC(=O)C(O)(c1ccccc1)C1CCCCC1 (stereo not drawn) | inactive: -1.62%
CCCCCOc1ccc(NP(C)(=O)Oc2ccc(Cl)cc2Cl)cc1 (stereo not drawn) | inactive: 23.9%
O=[N+]([O-])c1cc([N+](=O)[O-])c(OC2CCCCC2O)c([N+](=O)[O-])c1 (stereo not drawn) | inactive: 3.59%
CP(=O)(Nc1ccccc1)Oc1ccc(F)cc1 (stereo not drawn) | inactive: -15.4%
COc1ccc(OP(C)(=O)Nc2ccc(SC(F)(F)F)cc2)cc1 (stereo not drawn) | inactive: 6.08%
CCOC(=O)c1ccc(NP(C)(=O)Oc2ccc(F)cc2)cc1 (stereo not drawn) | inactive: 1.01%
O=C(OCCN1CCN(CCOCc2ccccc2)CC1)C(O)(c1ccccc1)c1ccccc1 | inactive: -12%
O=C(OC1CN2CCC1CC2)c1ccc([N+](=O)[O-])cc1 (stereo not drawn) | inactive: -2.38%
COc1ccc2c(c1O)-c1c(O)c(OC)cc3c1[C@H](C2)[N+](C)(C)CC3.O=[N+]([O-])c1cc([N+](=O)[O-])c([O-])c([N+](=O)[O-])c1[O-] | inactive: 15%
CC(C)c1ccc(OP(C)(=O)Nc2ccc(SC(F)(F)F)cc2)cc1 (stereo not drawn) | inactive: 32.2%
CP(=O)(Nc1ccccc1F)Oc1ccccc1 (stereo not drawn) | inactive: -4.56%
